For one molecule, IC50 results are on record in US9334286B2, “Pharmacologically active compounds” (Cancer Research Technology Limited, priority 2012, dated 2016).

Sequences of proteins named here, by UniProt entry; tags and fusion partners are left off. A change or cut given only in a name is not applied to a line headed by its entry.
UniProt P33981: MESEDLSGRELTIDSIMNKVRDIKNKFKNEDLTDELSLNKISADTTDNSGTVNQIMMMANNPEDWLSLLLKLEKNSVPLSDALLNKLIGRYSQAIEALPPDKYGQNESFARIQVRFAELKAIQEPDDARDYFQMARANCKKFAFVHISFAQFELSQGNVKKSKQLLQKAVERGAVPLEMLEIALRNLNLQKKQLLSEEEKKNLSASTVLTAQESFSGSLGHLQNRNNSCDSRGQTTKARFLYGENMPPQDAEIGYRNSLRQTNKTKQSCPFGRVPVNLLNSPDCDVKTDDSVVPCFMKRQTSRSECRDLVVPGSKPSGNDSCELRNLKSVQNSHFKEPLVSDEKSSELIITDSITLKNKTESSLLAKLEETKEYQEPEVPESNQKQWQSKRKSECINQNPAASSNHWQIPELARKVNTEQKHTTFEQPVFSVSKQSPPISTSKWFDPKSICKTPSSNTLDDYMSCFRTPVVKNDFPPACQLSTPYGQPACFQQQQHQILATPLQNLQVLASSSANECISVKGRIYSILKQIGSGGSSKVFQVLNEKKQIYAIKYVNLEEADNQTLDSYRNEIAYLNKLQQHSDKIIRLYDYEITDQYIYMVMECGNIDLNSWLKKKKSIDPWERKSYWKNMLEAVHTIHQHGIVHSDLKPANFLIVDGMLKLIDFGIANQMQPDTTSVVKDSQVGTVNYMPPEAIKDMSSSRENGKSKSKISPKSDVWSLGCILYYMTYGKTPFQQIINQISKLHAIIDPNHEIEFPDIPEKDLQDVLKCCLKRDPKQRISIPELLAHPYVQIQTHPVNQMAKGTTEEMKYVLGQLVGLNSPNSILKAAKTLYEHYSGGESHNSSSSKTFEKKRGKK

Each structure is given as a SMILES string.

In the test the target is full length MPS1 (Homo sapiens (Human), UniProt P33981). As to the kind of experiment: Measurement of inhibition of MPS1 kinase (Caliper EZ reader, fluorescent labelled peptide H236). In kind it is biochemical. To be noted: full length MPS1 12.5 nM or 3 nM, peptide H236 5 μM, ATP 10 μM, 60 min at room temperature. The method, then:
The reaction was carried out for 60 min at room temperature and stopped by the addition of buffer (10 μl) containing 20 mM EDTA, 0.05% (v/v) Brij-35, in 0.1M HEPES-buffered saline (Free acid, Sigma, UK). The plate was read on a Caliper EZ reader II (Caliper Life Sciences).
The reader provides a Software package (‘Reviewer’) which converts the peak heights into % conversion by measuring both product and substrate peak and also allows selection of control well which represent 0% and 100% inhibition respectively. The % inhibition of the compounds is calculated relative to the means of selected control wells. IC50s are determined by testing the compounds at a range of concentrations from 0.25 nM-100 μM. The % inhibitions at each concentration are then fitted to a 4 parameter logistic fit: y=(a+((b−a)/(1+((c/x^d)))) where a=asym min, b=asym max, c=IC50 and d=hill coefficient

For `COc1cc(C(=O)N2CC(OC)C2)ccc1Nc1cc2cc(-c3cnn(C4CCCC4O)c3)ccc2cn1` (racemic) [Example 83, (4-((6-(1-(2-Hydroxycyclopentyl)-1H-pyrazol-4-yl)isoquinolin-3-yl)amino)-3-methoxy-phenyl)(3-methoxyazetidin-1-yl)methanone], the midpoint of inhibition, the IC50, lay at 3 nM. In other words, the single-digit nanomolar range.
